# Laboratory results published in paper PMC3664792 (Nucleic Acids Research, 2013).
# Residue numbers refer to the chain shown, from its start.
# T1: His6-αGL (E. coli, UniProt P10443 1-1160, A921L | M923L | Val832Gly)
# T1 sequence: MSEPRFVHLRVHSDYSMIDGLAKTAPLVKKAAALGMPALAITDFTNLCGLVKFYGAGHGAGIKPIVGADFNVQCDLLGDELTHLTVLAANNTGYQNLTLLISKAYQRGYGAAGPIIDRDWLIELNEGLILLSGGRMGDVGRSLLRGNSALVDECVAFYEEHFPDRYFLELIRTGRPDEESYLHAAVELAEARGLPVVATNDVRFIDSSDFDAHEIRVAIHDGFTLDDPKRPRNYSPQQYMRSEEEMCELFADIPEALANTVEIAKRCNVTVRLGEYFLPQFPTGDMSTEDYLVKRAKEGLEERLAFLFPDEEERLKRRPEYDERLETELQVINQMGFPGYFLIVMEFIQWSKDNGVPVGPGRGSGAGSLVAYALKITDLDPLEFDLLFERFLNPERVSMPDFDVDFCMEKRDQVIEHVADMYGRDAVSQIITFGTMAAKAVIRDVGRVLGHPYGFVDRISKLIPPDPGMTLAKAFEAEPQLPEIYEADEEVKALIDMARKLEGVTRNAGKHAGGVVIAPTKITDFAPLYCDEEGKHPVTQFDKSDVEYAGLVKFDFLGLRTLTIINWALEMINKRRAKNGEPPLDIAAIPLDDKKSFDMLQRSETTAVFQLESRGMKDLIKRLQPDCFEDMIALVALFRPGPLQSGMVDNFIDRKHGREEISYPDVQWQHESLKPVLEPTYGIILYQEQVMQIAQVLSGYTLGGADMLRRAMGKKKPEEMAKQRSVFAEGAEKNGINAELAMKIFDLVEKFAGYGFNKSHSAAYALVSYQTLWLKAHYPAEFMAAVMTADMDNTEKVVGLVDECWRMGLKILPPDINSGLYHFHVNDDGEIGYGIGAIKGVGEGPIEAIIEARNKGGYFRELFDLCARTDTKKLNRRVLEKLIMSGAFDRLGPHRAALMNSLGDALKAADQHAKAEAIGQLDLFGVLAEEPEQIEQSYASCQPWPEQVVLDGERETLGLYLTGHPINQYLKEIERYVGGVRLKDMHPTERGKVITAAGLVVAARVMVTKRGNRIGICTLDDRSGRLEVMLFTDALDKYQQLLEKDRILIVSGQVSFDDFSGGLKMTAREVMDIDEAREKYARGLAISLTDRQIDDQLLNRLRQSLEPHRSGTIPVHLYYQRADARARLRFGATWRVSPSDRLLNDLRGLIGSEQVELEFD
# T2: αL (E. coli, UniProt P10443 1-1160, A921L | M923L)
# T2 sequence: T1 sequence with G832V
# T3: εL (E. coli, UniProt P03007 1-243, T183L | M185L | A186P | F187L)
# T3 sequence: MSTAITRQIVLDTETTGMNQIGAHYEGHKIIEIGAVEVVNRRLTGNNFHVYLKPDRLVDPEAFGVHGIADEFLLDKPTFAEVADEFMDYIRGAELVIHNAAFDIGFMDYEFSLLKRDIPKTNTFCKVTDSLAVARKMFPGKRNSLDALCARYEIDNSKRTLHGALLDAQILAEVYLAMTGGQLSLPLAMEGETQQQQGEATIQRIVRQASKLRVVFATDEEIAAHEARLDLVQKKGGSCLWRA
# B1: β2 sliding clamp (natural protein)
# chain: MKFTVEREHLLKPLQQVSGPLGGRPTLPILGNLLLQVADGTLSLTGTDLEMEMVARVALVQPHEPGATTVPARKFFDICRGLPEGAEIAVQLEGERMLVRSGRSRFSLSTLPAADFPNLDDWQSEVEFTLPQATMKRLIEATQFSMAHQDVRYYLNGMLFETEGEELRTVATDGHRLAVCSMPIGQSLPSHSVIVPRKGVIELMRMLDGGDNPLRVQIGSNNIRAHVGDFIFTSKLVDGRFPDYRRVLPKNPDKHLEAGCDLLKQAFARAAILSNEKFRGVRLYVSENQLKITANNPEQEEAEEILDVTYSGAEMEIGFNVSYVLDVLNALKCENVRMMLTDSVSSVQIEDAASQSAAYVVMPMRL
# B2: θ subunit of DNA polymerase III (natural protein)
# chain: MLKNLAKLDQTEMDKVNVDLAAAGVAFKERYNMPVIAEAVEREQPEHLRSWFRERLIAHRLASVNLSRLPYEPKLK
# Columns and labels:
# His6-αGL = target: T1, His6-αGL; test: SEC
# αL = target: T2, αL; test: anion-exchange chromatography
# εL = target: T3, εL; test: pull-down
Binder,binding result (His6-αGL),binding result (αL),binding result (εL)
B1,binds,binds,–
B2,–,–,binds
